Earlier results on two molecules are cited in patent US20220226508A1, “METHODS AND COMPOSITIONS FOR TREATING EPILEPSY” (THE REGENTS OF THE UNIVERSITY OF CALIFORNIA, priority 2019, published 2022).

Sequences of proteins named here, by UniProt entry; tags and fusion partners are left off. Residues count along the entry.
UniProt P41595, whole entry: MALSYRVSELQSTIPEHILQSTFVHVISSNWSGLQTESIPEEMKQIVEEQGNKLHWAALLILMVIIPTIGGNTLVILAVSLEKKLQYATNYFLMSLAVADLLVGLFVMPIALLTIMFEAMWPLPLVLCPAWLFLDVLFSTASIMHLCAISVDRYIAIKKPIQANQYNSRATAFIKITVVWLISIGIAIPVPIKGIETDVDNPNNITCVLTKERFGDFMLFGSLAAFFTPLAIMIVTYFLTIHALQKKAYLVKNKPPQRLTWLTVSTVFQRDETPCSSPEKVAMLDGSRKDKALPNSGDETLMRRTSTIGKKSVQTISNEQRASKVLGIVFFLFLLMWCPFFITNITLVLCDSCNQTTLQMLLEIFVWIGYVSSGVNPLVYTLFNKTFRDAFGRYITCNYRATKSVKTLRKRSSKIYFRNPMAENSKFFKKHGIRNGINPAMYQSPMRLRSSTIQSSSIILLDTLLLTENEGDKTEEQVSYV
UniProt P28335, 33-458: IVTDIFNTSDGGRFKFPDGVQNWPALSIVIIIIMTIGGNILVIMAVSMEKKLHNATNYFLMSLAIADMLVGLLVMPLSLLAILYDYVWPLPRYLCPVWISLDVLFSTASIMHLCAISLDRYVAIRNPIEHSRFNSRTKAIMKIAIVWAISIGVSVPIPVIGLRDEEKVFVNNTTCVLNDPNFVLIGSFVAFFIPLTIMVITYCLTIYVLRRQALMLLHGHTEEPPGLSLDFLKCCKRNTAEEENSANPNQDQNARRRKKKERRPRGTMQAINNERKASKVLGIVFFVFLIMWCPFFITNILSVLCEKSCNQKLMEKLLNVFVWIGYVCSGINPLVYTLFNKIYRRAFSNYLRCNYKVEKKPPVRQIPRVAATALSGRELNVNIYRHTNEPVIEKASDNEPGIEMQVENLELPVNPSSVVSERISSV

One data set concerns the target T1, human 5-HT2BR (Homo sapiens, UniProt P41595).
T1 construct: expressed in transfected cells

A further data set concerns the target T2, human 5-HT2CR (Homo sapiens, UniProt P28335).
T2 construct: expressed in transfected cells
Particulars: known drugs and commercial compounds; read-out: binding affinity (Ki) 5-HT2C / 5-HT2CR; cited from earlier work.

Where two headings read alike, the source gives them in different places.

Regarding `Cl.Clc1cccc(N2CCNCC2)c1`, the Ki at human 5-HT2BR (known drugs and commercial compounds; read-out: binding affinity (Ki) 5-HT2B / 5-HT2BR; cited from earlier work) was 0.0303 µM; on human 5-HT2CR it was 0.013 µM. For the molecule `CC(N)Cc1c[nH]c2ccc(OCc3cccs3)cc12` (stereo not drawn) [reference compound], the Ki on human 5-HT2BR (read-out: binding affinity (Ki) 5-HT2B / 5-HT2BR; known drugs and commercial compounds; cited from earlier work) was 0.0032 µM.
